Experimental data reported in patent US5578288, “Metal-binding targeted polypeptide constructs” (Cytogen Corporation, dated 1996).

Target: receptor on murine NIH-3T3 fibroblast cells (ATCC No. CCL92) to which 125I-GRP binds (murine) (UniProt P21729)
Assay: 125I-GRP at 0.45 pM on NIH-3T3 cells, no inhibitor, filter assay

% BOUND: 5.9%
AVG CPM BOUND: 3900 CPM
Substance: 125I-GRP (Amersham) (ligand)
